{"source": "paper PMC3406060", "key": {"[1]": {"biological_target": "IRA/IGF1R hybrid receptor (IRA-Luc/IGF1R-YFP) (UniProt P06213)"}, "[2]": {"biological_target": "IRA homodimer (IRA-Luc/IRA-YFP) (UniProt P06213)"}, "[3]": {"biological_target": "IRB homodimer (IRB-Luc/IRB-YFP) (UniProt P06213)"}, "[4]": {"biological_target": "IRB/IGF1R hybrid receptor (IRB-Luc/IGF1R-YFP) (UniProt P06213)"}, "[5]": {"biological_target": "insulin receptor (IR), endogenous in MCF-7 and MDA-MB231 cells (human (endogenous in MCF-7 and MDA-MB231)) (UniProt P06213)"}, "[6]": {"biological_target": "IRA/IGF1R hybrid receptor (IRA-Luc/IGF1R-YFP) (UniProt P06213)", "remark": "listed apart in the source"}, "[7]": {"biological_target": "IRA homodimer (IRA-Luc/IRA-YFP) (UniProt P06213)", "remark": "listed apart in the source"}, "[8]": {"biological_target": "IRB homodimer (IRB-Luc/IRB-YFP) (UniProt P06213)", "remark": "listed apart in the source"}, "[9]": {"biological_target": "IRB/IGF1R hybrid receptor (IRB-Luc/IGF1R-YFP) (UniProt P06213)", "remark": "listed apart in the source"}}}
{"substance": "Human insulin (actrapid) (ligand)", "values": [{"measurement": "EC50 of ligand-induced BRET (Luc/YFP on the two ß-subunits) of partially purified receptors", "setting": "[1]", "result": 130, "unit": "nM"}, {"measurement": "EC50 of ligand-induced BRET (Luc/YFP on the two ß-subunits) of partially purified receptors", "setting": "[2]", "result": 2.7, "unit": "nM"}, {"measurement": "EC50 of ligand-induced BRET (Luc/YFP on the two ß-subunits) of partially purified receptors", "setting": "[3]", "result": 2.56, "unit": "nM"}, {"measurement": "EC50 of ligand-induced BRET (Luc/YFP on the two ß-subunits) of partially purified receptors", "setting": "[4]", "result": 69.6, "unit": "nM"}, {"measurement": "EC50 of PIP3 production (BRET, Luc-Akt-PH and membrane YFP) in living MDA-MB231 cells", "setting": "[5]", "result": 0.55, "unit": "nM"}, {"measurement": "EC50 of ligand-induced BRET (Luc/YFP on the two ß-subunits) of partially purified receptors, series with M1 and M2", "setting": "[6]", "result": 84.3, "unit": "nM"}, {"measurement": "EC50 of ligand-induced BRET (Luc/YFP on the two ß-subunits) of partially purified receptors, series with M1 and M2", "setting": "[7]", "result": 2.15, "unit": "nM"}, {"measurement": "EC50 of ligand-induced BRET (Luc/YFP on the two ß-subunits) of partially purified receptors, series with M1 and M2", "setting": "[8]", "result": 3.68, "unit": "nM"}, {"measurement": "EC50 of ligand-induced BRET (Luc/YFP on the two ß-subunits) of partially purified receptors, series with M1 and M2", "setting": "[9]", "result": 48.1, "unit": "nM"}]}
{"substance": "aspart (B28Asp-insulin) (ligand)", "values": [{"measurement": "EC50 of ligand-induced BRET (Luc/YFP on the two ß-subunits) of partially purified receptors", "setting": "[1]", "result": 128, "unit": "nM"}, {"measurement": "EC50 of ligand-induced BRET (Luc/YFP on the two ß-subunits) of partially purified receptors", "setting": "[2]", "result": 1.48, "unit": "nM"}, {"measurement": "EC50 of ligand-induced BRET (Luc/YFP on the two ß-subunits) of partially purified receptors", "setting": "[3]", "result": 2.97, "unit": "nM"}, {"measurement": "EC50 of ligand-induced BRET (Luc/YFP on the two ß-subunits) of partially purified receptors", "setting": "[4]", "result": 34.1, "unit": "nM"}, {"measurement": "EC50 of PIP3 production (BRET, Luc-Akt-PH and membrane YFP) in living MDA-MB231 cells", "setting": "[5]", "result": 0.59, "unit": "nM"}]}
{"substance": "lispro (B28Lys,B29Pro-insulin) (ligand)", "values": [{"measurement": "EC50 of ligand-induced BRET (Luc/YFP on the two ß-subunits) of partially purified receptors", "setting": "[1]", "result": 55.7, "unit": "nM"}, {"measurement": "EC50 of ligand-induced BRET (Luc/YFP on the two ß-subunits) of partially purified receptors", "setting": "[2]", "result": 1.65, "unit": "nM"}, {"measurement": "EC50 of ligand-induced BRET (Luc/YFP on the two ß-subunits) of partially purified receptors", "setting": "[3]", "result": 2.46, "unit": "nM"}, {"measurement": "EC50 of ligand-induced BRET (Luc/YFP on the two ß-subunits) of partially purified receptors", "setting": "[4]", "result": 23, "unit": "nM"}, {"measurement": "EC50 of PIP3 production (BRET, Luc-Akt-PH and membrane YFP) in living MDA-MB231 cells", "setting": "[5]", "result": 0.43, "unit": "nM"}]}
{"substance": "glargine (A21Gly,B31Arg,B32Arg-insulin) (ligand)", "values": [{"measurement": "EC50 of ligand-induced BRET (Luc/YFP on the two ß-subunits) of partially purified receptors", "setting": "[1]", "result": 18.1, "unit": "nM"}, {"measurement": "EC50 of ligand-induced BRET (Luc/YFP on the two ß-subunits) of partially purified receptors", "setting": "[2]", "result": 2.38, "unit": "nM"}, {"measurement": "EC50 of ligand-induced BRET (Luc/YFP on the two ß-subunits) of partially purified receptors", "setting": "[3]", "result": 2.39, "unit": "nM"}, {"measurement": "EC50 of ligand-induced BRET (Luc/YFP on the two ß-subunits) of partially purified receptors", "setting": "[4]", "result": 7.6, "unit": "nM"}, {"measurement": "EC50 of PIP3 production (BRET, Luc-Akt-PH and membrane YFP) in living MDA-MB231 cells", "setting": "[5]", "result": 0.78, "unit": "nM"}, {"measurement": "EC50 of ligand-induced BRET (Luc/YFP on the two ß-subunits) of partially purified receptors, series with M1 and M2", "setting": "[6]", "result": 10.2, "unit": "nM"}, {"measurement": "EC50 of ligand-induced BRET (Luc/YFP on the two ß-subunits) of partially purified receptors, series with M1 and M2", "setting": "[7]", "result": 2.04, "unit": "nM"}, {"measurement": "EC50 of ligand-induced BRET (Luc/YFP on the two ß-subunits) of partially purified receptors, series with M1 and M2", "setting": "[8]", "result": 3.88, "unit": "nM"}, {"measurement": "EC50 of ligand-induced BRET (Luc/YFP on the two ß-subunits) of partially purified receptors, series with M1 and M2", "setting": "[9]", "result": 6.28, "unit": "nM"}]}
